Measured values taken from paper PMC4740242 (Cell reports, 2016).

Key:
Type in all cases: biochemical
Details in all cases: single-dose screen
BMX/ETK = target: T1, BMX/ETK (Homo sapiens, UniProt P51813); experiment: Wild-type kinase panel, BMX/ETK
T1 sequence (P51813 1-675): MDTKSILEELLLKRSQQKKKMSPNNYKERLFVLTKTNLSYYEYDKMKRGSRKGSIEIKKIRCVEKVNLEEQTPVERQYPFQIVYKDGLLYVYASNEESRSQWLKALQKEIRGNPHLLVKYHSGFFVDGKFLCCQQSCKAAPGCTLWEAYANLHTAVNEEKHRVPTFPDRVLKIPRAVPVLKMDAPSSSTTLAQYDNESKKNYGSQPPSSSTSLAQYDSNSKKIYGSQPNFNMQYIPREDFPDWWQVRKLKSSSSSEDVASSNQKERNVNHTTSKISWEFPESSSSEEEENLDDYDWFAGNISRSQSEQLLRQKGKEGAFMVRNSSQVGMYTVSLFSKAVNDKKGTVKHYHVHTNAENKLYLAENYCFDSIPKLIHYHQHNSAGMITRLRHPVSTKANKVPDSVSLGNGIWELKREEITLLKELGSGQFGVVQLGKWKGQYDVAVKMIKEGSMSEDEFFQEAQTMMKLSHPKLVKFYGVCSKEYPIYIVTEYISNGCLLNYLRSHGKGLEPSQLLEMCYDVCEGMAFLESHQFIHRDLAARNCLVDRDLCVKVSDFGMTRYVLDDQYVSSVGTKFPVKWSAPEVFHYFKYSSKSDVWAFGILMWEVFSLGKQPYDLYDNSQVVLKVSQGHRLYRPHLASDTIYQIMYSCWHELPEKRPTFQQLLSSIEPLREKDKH

EGFR = EGFR (Homo sapiens, UniProt P00533); experiment: Wild-type kinase panel, EGFR
ERBB2 = ERBB2 (Homo sapiens, UniProt P04626); experiment: Wild-type kinase panel, ERBB2

EGFR/ErbB2/ErbB4 Inhibitor
more than 50%: inhibition of BMX/ETK (BMX/ETK) | inhibition of EGFR (EGFR) | inhibition of ERBB2 (ERBB2)
